Experimental data reported in patent US20250381249A1, “COMBINATION TREATMENT FOR RESISTANT HYPERTENSION” (Mayo Foundation for Medical Education and Research, priority 2018, published 2025).

Test: Acute study in SHR, plasma ANP radioimmunoassay as assessment of MANP
Type: in vivo, rat
Conditions: for Plasma ANP: after 60-min treatment, mean±SEM
Method: Acute Study Protocol in SHR: The cardiorenal and neurohumoral actions of MANP, Fs, or their combination were investigated in the genetic model of hypertension in male SHR (n=6 in each group). Rats were anesthetized in an induction chamber with inhaled Isoflurane 2.5%. During this brief state of anesthesia, the rats were administered IP Inactin 100 mg/kg to maintain anesthesia. An oxygen mask was used until the end of the experiment. The carotid artery was cannulated for arterial pressure measurements and the right jugular vein was cannulated for infusions. Pressures were recorded and analyzed digitally (Sonometrics, London, Ontario, Canada). Via a small incision in the lower abdominal wall, the bladder was cannulated for urine sampling.
Immediately after preparation, a 30-minute equilibration period was started with intravenous inulin infusion. […] After baseline measurements, rats were randomly assigned to ten groups: • Group 1—treated with MANP100; • Group 2—treated with MANP300; • Group 3—treated with MANP600; • Group 4—treated with Fs1; • Group 5—treated with Fs5; • Group 6—treated with Fs10; • Group 7—treated with MANP300+Fs5; • Group 8—treated with MANP300+Fs10; • Group 9—treated with MANP600+Fs10; and • Group 10—treated with inulin, normal saline, or inulin and normal saline. For Groups 1-3, after a 15-minute lead-in of MANP infusion, MANP was continuously infused for a total of 60 minutes. Animals in Groups 4-6 received a single intravenous (IV) bolus administration of Fs. MANP+Fs Groups 7-9 received a single IV bolus injection of Fs followed by a 15-minute lead-in infusion of MANP with a further 60-minute continuous infusion of MANP at the same dose. The control animals (Group 10) received a continuous inulin infusion as an MANP control, a single IV bolus injection of 0.9% normal saline as a Fs control, or the combination of a single IV bolus of 0.9% normal saline and continuous inulin infusion as a control for MANP+Fs treatment.
Neurohormonal and Electrolyte Analysis: Plasma ANP was measured by radioimmunoassay (Phoenix Pharmaceuticals) as an assessment of MANP, as the ANP RIA fully detects MANP (Burnett et al. (1986) Science 231(4742):1145-1147). Plasma and urinary cGMP (Enzo Life Sciences) and aldosterone (DRG International, Springfield, NJ) were determined by ELISA. Inulin concentrations were measured using the anthrone method, as described elsewhere (Fuhr et al. (1955) Klin. Wochenschr 33:729-730). GFR was calculated by inulin clearance. Electrolytes were measured by flame photometry (IL943, Instrumentation Laboratory, UK). All measurements were performed according to manufacturer instructions.

plasma ANP immunoreactivity as a measure of MANP immunoreactivity (MANP infusion alone or in combination with Fs): significant increases
Plasma ANP (MANP 100 pmol/kg/min): 430 ± 99 pg/mL
Plasma ANP (MANP 300 pmol/kg/min): 2577 ± 568 pg/mL
Plasma ANP (MANP 600 pmol/kg/min): 20611 ± 3041 pg/mL
SMILES: CC[C@H](C)[C@@H]1NC(=O)[C@H](CCCNC(=N)N)NC(=O)[C@H](CC(=O)O)NC(=O)[C@H](CCSC)NC(=O)[C@H](CCCNC(=N)N)NC(=O)CNC(=O)CNC(=O)[C@H](Cc2ccccc2)NC(=O)[C@@H](NC(=O)[C@H](CO)NC(=O)[C@H](CO)NC(=O)[C@H](CCCNC(=N)N)NC(=O)[C@H](CCCNC(=N)N)NC(=O)[C@H](CC(C)C)NC(=O)[C@@H](N)CO)CSSC[C@@H](C(=O)N[C@@H](CC(N)=O)C(=O)N[C@@H](CO)C(=O)N[C@@H](Cc2ccccc2)C(=O)N[C@@H](CCCNC(=N)N)C(=O)N[C@@H](Cc2ccc(O)cc2)C(=O)N[C@@H](CCCNC(=N)N)C(=O)N[C@H](C(=O)N[C@H](C(=O)N[C@@H](C)C(=O)N[C@@H](CCCNC(=N)N)C(=O)N[C@@H](CCC(=O)O)C(=O)N[C@@H](CC(=O)O)C(=O)N[C@@H](CCCCN)C(=O)N[C@@H](CCC(N)=O)C(=O)NCC(=O)N[C@@H](Cc2c[nH]c3ccccc23)C(=O)N[C@@H](C)C(=O)O)[C@@H](C)O)[C@@H](C)CC)NC(=O)CNC(=O)[C@H](CC(C)C)NC(=O)CNC(=O)[C@H](CO)NC(=O)[C@H](CCC(N)=O)NC(=O)[C@H](C)NC(=O)CNC1=O [MANP]
